In this experiment the target is N-terminal HiBiT tagged BCL6 (Homo sapiens, UniProt P41182). The experiment in a line: HiBiT based degradation assay. As to conditions: HT1080 cells expressing N-terminal HiBiT tagged BCL6, 5 hours of incubation. The source says:
Human BCL6 protein coding open reading frame fused with N-terminal HiBiT coding sequence was synthesized from Integrated DNA Technologies (IDT). Next, the N-HiBiT-BCL6 sequence was cloned into pLV-UBC-PGK-Puro, a lentivirus plasmid purchased from Vectorbuilder, to generate pLV-UBC-N-HiBiT-BCL6-PGK-puro. Lentiviral particles were generated from Lenti-X™ 293T cells (Clontech) by co-transfection of pLV-UBC-N-HiBiT-BCL6-PGK-puro plasmids and lentiviral packaging plasmid mix (Cellecta). HT1080 [HT1080] (ATCC CCL-121) cells were infected with the lentivirus, and HT1080 cells stably integrated with the lentiviral vectors were established by incubation with 1 μg/mL puromycin (Thermofisher).
HT1080 cells expressing N-terminal HiBiT tagged BCL6 were dispensed into a 384-well plate pre-spotted with compounds at varying concentrations. Five thousand cells were seeded into each well in 40 μL of RPMI 1640 media plus 10% Fetal Bovine Serum (10082-147, Thermofisher). After 5 hours of incubation at 37° C. with 5% CO2, 30 μL of the NANO-GLOR HiBiT Lytic Detection System working solution (Promega) was added to each well and incubated at room temperature for 15 min. After incubation, luminescence was read on a PHERAstar FSX Plate Reader (BMG). BCL6 degradation at each indicated concentration was normalized with DMSO control. The BCL6 degradation curves were plotted using a four-parameter logistic model.
A general note: The HiBiT peptide binds its large partner to form an active luciferase.

As a reminder, the EC50 is the concentration that produces a half-maximal response.

For `CNC(=O)COc1cc2cc(Nc3nc(N4CCN(CC5CCN(c6cccc7c(N8CCC(=O)NC8=O)nn(C)c67)CC5)CC4)ncc3Cl)cnc2n(C)c1=O`, where the note is “BCL6 degradation normalized with DMSO control”, the “Ymin (5 hr)” value is given as “++ (50% ≤ Ymin < 70%)”. Moreover, the EC50 (read-out: EC50 (5 hr), four-parameter logistic model) was in the range of 10 to 100 nM.

Source of the values: patent publication US20260241012A1, “1,8-NAPHTHYRIDIN-2-ONE HETEROBIFUNCTIONAL BCL6 DEGRADERS” (Treeline Biosciences, Inc., priority 2022, published 2026).
